# Earlier results as cited in publication PMC5700124 (Scientific Reports, 2017).
# Test system: translocator protein (TSPO)
# Parameters: method as in Hilmer et al.[39]
# Details: 0.1 ng/kg i.v.; ref Hilmer et al.[39]; cited from earlier work
substance,measurement,value
lipopolysaccharide [LPS],increase of [^11C] PBR28 fP,38%
